Earlier results on one substance are cited in patent publication US10206402B2, “Environmentally-friendly emamectin benzoate preparation and preparation method therefor” (NANJING SCIENX BIOLOGICAL TECHNOLOGY CO., LTD, priority 2014, dated 2019).

For the series the following is noted: in water; 25° C.

As for Emamectin benzoate, the water solubility entry is reported as “about 0.024 g/L”.
